The chains behind the UniProt entries cited, without tags or fusion partners. Residues count along the entry.
UniProt Q9Y490, 309-401: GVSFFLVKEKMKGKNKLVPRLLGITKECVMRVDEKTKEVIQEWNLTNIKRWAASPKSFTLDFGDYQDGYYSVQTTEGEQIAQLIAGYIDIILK

In paper PMC12102759 (Protein Science : A Publication of the Protein Society, 2025):

Target: TLN1 PTB (Homo sapiens, UniProt Q9Y490)
Type: binding

| Substance | DMS-derived PSSM value of the single-substitution variant | further results |
| --- | --- | --- |
| TDERSWVYSPLHYSAQ S5I (TDERIWVYSPLHYSAQ) | 0.1035 |  |
| TDERSWVYSPLHYSAQ L11G (TDERSWVYSPGHYSAQ) | 0.01735 |  |
| TDERSWVYSPLHYSAQ S9K (TDERSWVYKPLHYSAQ) | 0 |  |
| TDERSWVYSPLHYSAQ S9Y (TDERSWVYYPLHYSAQ) | 0.004881 |  |
| TDERSWVYSPLHYSAQ V7Y (TDERSWYYSPLHYSAQ) | 0.06871 |  |
| TDERSWVYSPLHYSAQ W6L (TDERSLVYSPLHYSAQ) | 0.002846 |  |
| FPTDERSWVYSPLHYS Y10N (FPTDERSWVNSPLHYS) | 0.01841 |  |
| TDERSWVYSPLHYSAQ S9T (TDERSWVYTPLHYSAQ) | 0.04707 |  |
| FPTDERSWVYSPLHYS E5A (FPTDARSWVYSPLHYS) | 0.02052 |  |
| TDERSWVYSPLHYS(averaged) P10R (TDERSWVYSRLHYS) |  | DMS-derived PSSM value, averaged over the two overlapping peptides: 0.04206 |
| TDERSWVYSPLHYSAQ D2W (TWERSWVYSPLHYSAQ) | 0.01638 |  |
| FPTDERSWVYSPLHYS H14E (FPTDERSWVYSPLEYS) | 0.07798 |  |
| TDERSWVYSPLHYSAQ A15Q (TDERSWVYSPLHYSQQ) | 0.263 |  |
| FPTDERSWVYSPLHYS P12H (FPTDERSWVYSHLHYS) | 0.01208 |  |
| TDERSWVYSPLHYSAQ S5R (TDERRWVYSPLHYSAQ) | 0.009424 |  |
| TDERSWVYSPLHYSAQ A15H (TDERSWVYSPLHYSHQ) | 0.02079 |  |
| TDERSWVYSPLHYSAQ A15L (TDERSWVYSPLHYSLQ) | 0.03914 |  |
| TDERSWVYSPLHYSAQ R4Y (TDEYSWVYSPLHYSAQ) | 0.06001 |  |
| TDERSWVYSPLHYSAQ E3A (TDARSWVYSPLHYSAQ) | 0.00735 |  |
| FPTDERSWVYSPLHYS S16P (FPTDERSWVYSPLHYP) | 0.03064 |  |
| TDERSWVYSPLHYSAQ Y13K (TDERSWVYSPLHKSAQ) | 0.01075 |  |
| TDERSWVYSPLHYSAQ Y8L (TDERSWVLSPLHYSAQ) | 0.1253 |  |
| TDERSWVYSPLHYS(averaged) Y13H (TDERSWVYSPLHHS) |  | DMS-derived PSSM value, averaged over the two overlapping peptides: 0.03552 |

| Substance | DMS-derived PSSM value of the single-substitution variant | further results |
| --- | --- | --- |
| TDERSWVYSPLHYSAQ T1D (DDERSWVYSPLHYSAQ) | 0.05547 |  |
| TDERSWVYSPLHYS(averaged) H12R (TDERSWVYSPLRYS) |  | DMS-derived PSSM value, averaged over the two overlapping peptides: 0.01665 |
| FPTDERSWVYSPLHYS S11Q (FPTDERSWVYQPLHYS) | 0 |  |
| TDERSWVYSPLHYS(averaged) T1M (MDERSWVYSPLHYS) |  | DMS-derived PSSM value, averaged over the two overlapping peptides: 0.006995 |
| FPTDERSWVYSPLHYS D4S (FPTSERSWVYSPLHYS) | 0.09689 |  |
| TDERSWVYSPLHYSAQ Y8K (TDERSWVKSPLHYSAQ) | 0.01029 |  |
| FPTDERSWVYSPLHYS S11V (FPTDERSWVYVPLHYS) | 0.04718 |  |
| TDERSWVYSPLHYS(averaged) R4P (TDEPSWVYSPLHYS) |  | DMS-derived PSSM value, averaged over the two overlapping peptides: 0.01819 |
| TDERSWVYSPLHYSAQ Y13E (TDERSWVYSPLHESAQ) | 0.009966 |  |
| TDERSWVYSPLHYSAQ H12I (TDERSWVYSPLIYSAQ) | 0.01718 |  |
| TDERSWVYSPLHYSAQ Y8E (TDERSWVESPLHYSAQ) | 0.01953 |  |
| TDERSWVYSPLHYSAQ W6I (TDERSIVYSPLHYSAQ) | 0.01452 |  |
| TDERSWVYSPLHYSAQ S5L (TDERLWVYSPLHYSAQ) | 0.09095 |  |
| FPTDERSWVYSPLHYS L13N (FPTDERSWVYSPNHYS) | 0.01059 |  |
| TDERSWVYSPLHYS(averaged) T1E (EDERSWVYSPLHYS) |  | DMS-derived PSSM value, averaged over the two overlapping peptides: 0.1596 |
| TDERSWVYSPLHYS(averaged) R4A (TDEASWVYSPLHYS) |  | DMS-derived PSSM value, averaged over the two overlapping peptides: 0.1847 |
| FPTDERSWVYSPLHYS D4Y (FPTYERSWVYSPLHYS) | 0.007692 |  |
| TDERSWVYSPLHYSAQ P10R (TDERSWVYSRLHYSAQ) | 0.01859 |  |
| TDERSWVYSPLHYSAQ L11N (TDERSWVYSPNHYSAQ) | 0.005496 |  |
| TDERSWVYSPLHYS(averaged) H12W (TDERSWVYSPLWYS) |  | DMS-derived PSSM value, averaged over the two overlapping peptides: 0.008707 |
| TDERSWVYSPLHYS(averaged) S14L (TDERSWVYSPLHYL) |  | DMS-derived PSSM value, averaged over the two overlapping peptides: 0.01979 |
| Ac-LADLIFTDSKLWIPLE-NH2 [TPTE2_Y103W] |  | NGS_counts log2_total (DMS-BM phage selection against TLN1 PTB, log2 of summed NGS counts): 5.13 |
| FPTDERSWVYSPLHYS D4F (FPTFERSWVYSPLHYS) | 0.0552 |  |

| Substance | DMS-derived PSSM value of the single-substitution variant | further results |
| --- | --- | --- |
| FPTDERSWVYSPLHYS D4G (FPTGERSWVYSPLHYS) | 0.263 |  |
| FPTDERSWVYSPLHYS S7H (FPTDERHWVYSPLHYS) | 0.04425 |  |
| FPTDERSWVYSPLHYS P12D (FPTDERSWVYSDLHYS) | 0.005137 |  |
| FPTDERSWVYSPLHYS S16E (FPTDERSWVYSPLHYE) | 0.04737 |  |
| TDERSWVYSPLHYSAQ S5Y (TDERYWVYSPLHYSAQ) | 0.008405 |  |
| FPTDERSWVYSPLHYS P2K (FKTDERSWVYSPLHYS) | 0.002675 |  |
| TDERSWVYSPLHYSAQ S14A (TDERSWVYSPLHYAAQ) | 0.02095 |  |
| FPTDERSWVYSPLHYS Y15H (FPTDERSWVYSPLHHS) | 0.06268 |  |
| FPTDERSWVYSPLHYS P2V (FVTDERSWVYSPLHYS) | 0.1455 |  |
| FPTDERSWVYSPLHYS P12K (FPTDERSWVYSKLHYS) | 0.01148 |  |
| TDERSWVYSPLHYS(averaged) L11L |  | DMS-derived PSSM value, averaged over the two overlapping peptides: 0.2428 |
| TDERSWVYSPLHYS(averaged) R4T (TDETSWVYSPLHYS) |  | DMS-derived PSSM value, averaged over the two overlapping peptides: 0.01714 |
| TDERSWVYSPLHYSAQ S14H (TDERSWVYSPLHYHAQ) | 0.05425 |  |
| TDERSWVYSPLHYSAQ Y13V (TDERSWVYSPLHVSAQ) | 0.02098 |  |
| FPTDERSWVYSPLHYS S11N (FPTDERSWVYNPLHYS) | 0.03654 |  |
| TDERSWVYSPLHYS(averaged) P10V (TDERSWVYSVLHYS) |  | DMS-derived PSSM value, averaged over the two overlapping peptides: 0.01558 |
| FPTDERSWVYSPLHYS T3S (FPSDERSWVYSPLHYS) | 0.03707 |  |
| TDERSWVYSPLHYSAQ S14W (TDERSWVYSPLHYWAQ) | 0.1224 |  |
| FPTDERSWVYSPLHYS T3H (FPHDERSWVYSPLHYS) | 0.04202 |  |
| TDERSWVYSPLHYS(averaged) H12V (TDERSWVYSPLVYS) |  | DMS-derived PSSM value, averaged over the two overlapping peptides: 0.0733 |
| TDERSWVYSPLHYS(averaged) V7K (TDERSWKYSPLHYS) |  | DMS-derived PSSM value, averaged over the two overlapping peptides: 0.04004 |
| TDERSWVYSPLHYSAQ S14I (TDERSWVYSPLHYIAQ) | 0.002934 |  |
| TDERSWVYSPLHYSAQ H12L (TDERSWVYSPLLYSAQ) | 0.03602 |  |

| Substance | DMS-derived PSSM value of the single-substitution variant | further results |
| --- | --- | --- |
| FPTDERSWVYSPLHYS P12S (FPTDERSWVYSSLHYS) | 0.02523 |  |
| FPTDERSWVYSPLHYS R6F (FPTDEFSWVYSPLHYS) | 0 |  |
| TDERSWVYSPLHYS(averaged) D2H (THERSWVYSPLHYS) |  | DMS-derived PSSM value, averaged over the two overlapping peptides: 0.07224 |
| FPTDERSWVYSPLHYS S11D (FPTDERSWVYDPLHYS) | 0 |  |
| FPTDERSWVYSPLHYS Y15Y | 0.01552 |  |
| FPTDERSWVYSPLHYS D4P (FPTPERSWVYSPLHYS) | 0.02886 |  |
| TDERSWVYSPLHYS(averaged) Y13A (TDERSWVYSPLHAS) |  | DMS-derived PSSM value, averaged over the two overlapping peptides: 0.04569 |
| TDERSWVYSPLHYS(averaged) P10W (TDERSWVYSWLHYS) |  | DMS-derived PSSM value, averaged over the two overlapping peptides: 0.01215 |
| TDERSWVYSPLHYS(averaged) P10A (TDERSWVYSALHYS) |  | DMS-derived PSSM value, averaged over the two overlapping peptides: 0.0945 |
| TDERSWVYSPLHYSAQ V7S (TDERSWSYSPLHYSAQ) | 0.01209 |  |
| TDERSWVYSPLHYS(averaged) S5P (TDERPWVYSPLHYS) |  | DMS-derived PSSM value, averaged over the two overlapping peptides: 0.02875 |
| TDERSWVYSPLHYSAQ S14Y (TDERSWVYSPLHYYAQ) | 0.02333 |  |
| TDERSWVYSPLHYSAQ W6T (TDERSTVYSPLHYSAQ) | 0.004443 |  |
| TDERSWVYSPLHYS(averaged) Y13Y |  | DMS-derived PSSM value, averaged over the two overlapping peptides: 0.07288 |
| FPTDERSWVYSPLHYS P2H (FHTDERSWVYSPLHYS) | 0.006141 |  |
| TDERSWVYSPLHYS(averaged) R4S (TDESSWVYSPLHYS) |  | DMS-derived PSSM value, averaged over the two overlapping peptides: 0.209 |
| TDERSWVYSPLHYSAQ S14S | 0.103 |  |
| TDERSWVYSPLHYSAQ S14Q (TDERSWVYSPLHYQAQ) | 0.01646 |  |
| TDERSWVYSPLHYSAQ Y8R (TDERSWVRSPLHYSAQ) | 0.1517 |  |
| FPTDERSWVYSPLHYS Y10G (FPTDERSWVGSPLHYS) | 0.00629 |  |
| FPTDERSWVYSPLHYS T3N (FPNDERSWVYSPLHYS) | 0.01686 |  |
